From ChEMBL document CHEMBL3616397, “Voltage-Gated Sodium Channels: Structure, Function, Pharmacology, and Clinical Indications” (J Med Chem, 2015)

The chains behind the UniProt entries cited, without tags or fusion partners.
UniProt Q15858, whole entry: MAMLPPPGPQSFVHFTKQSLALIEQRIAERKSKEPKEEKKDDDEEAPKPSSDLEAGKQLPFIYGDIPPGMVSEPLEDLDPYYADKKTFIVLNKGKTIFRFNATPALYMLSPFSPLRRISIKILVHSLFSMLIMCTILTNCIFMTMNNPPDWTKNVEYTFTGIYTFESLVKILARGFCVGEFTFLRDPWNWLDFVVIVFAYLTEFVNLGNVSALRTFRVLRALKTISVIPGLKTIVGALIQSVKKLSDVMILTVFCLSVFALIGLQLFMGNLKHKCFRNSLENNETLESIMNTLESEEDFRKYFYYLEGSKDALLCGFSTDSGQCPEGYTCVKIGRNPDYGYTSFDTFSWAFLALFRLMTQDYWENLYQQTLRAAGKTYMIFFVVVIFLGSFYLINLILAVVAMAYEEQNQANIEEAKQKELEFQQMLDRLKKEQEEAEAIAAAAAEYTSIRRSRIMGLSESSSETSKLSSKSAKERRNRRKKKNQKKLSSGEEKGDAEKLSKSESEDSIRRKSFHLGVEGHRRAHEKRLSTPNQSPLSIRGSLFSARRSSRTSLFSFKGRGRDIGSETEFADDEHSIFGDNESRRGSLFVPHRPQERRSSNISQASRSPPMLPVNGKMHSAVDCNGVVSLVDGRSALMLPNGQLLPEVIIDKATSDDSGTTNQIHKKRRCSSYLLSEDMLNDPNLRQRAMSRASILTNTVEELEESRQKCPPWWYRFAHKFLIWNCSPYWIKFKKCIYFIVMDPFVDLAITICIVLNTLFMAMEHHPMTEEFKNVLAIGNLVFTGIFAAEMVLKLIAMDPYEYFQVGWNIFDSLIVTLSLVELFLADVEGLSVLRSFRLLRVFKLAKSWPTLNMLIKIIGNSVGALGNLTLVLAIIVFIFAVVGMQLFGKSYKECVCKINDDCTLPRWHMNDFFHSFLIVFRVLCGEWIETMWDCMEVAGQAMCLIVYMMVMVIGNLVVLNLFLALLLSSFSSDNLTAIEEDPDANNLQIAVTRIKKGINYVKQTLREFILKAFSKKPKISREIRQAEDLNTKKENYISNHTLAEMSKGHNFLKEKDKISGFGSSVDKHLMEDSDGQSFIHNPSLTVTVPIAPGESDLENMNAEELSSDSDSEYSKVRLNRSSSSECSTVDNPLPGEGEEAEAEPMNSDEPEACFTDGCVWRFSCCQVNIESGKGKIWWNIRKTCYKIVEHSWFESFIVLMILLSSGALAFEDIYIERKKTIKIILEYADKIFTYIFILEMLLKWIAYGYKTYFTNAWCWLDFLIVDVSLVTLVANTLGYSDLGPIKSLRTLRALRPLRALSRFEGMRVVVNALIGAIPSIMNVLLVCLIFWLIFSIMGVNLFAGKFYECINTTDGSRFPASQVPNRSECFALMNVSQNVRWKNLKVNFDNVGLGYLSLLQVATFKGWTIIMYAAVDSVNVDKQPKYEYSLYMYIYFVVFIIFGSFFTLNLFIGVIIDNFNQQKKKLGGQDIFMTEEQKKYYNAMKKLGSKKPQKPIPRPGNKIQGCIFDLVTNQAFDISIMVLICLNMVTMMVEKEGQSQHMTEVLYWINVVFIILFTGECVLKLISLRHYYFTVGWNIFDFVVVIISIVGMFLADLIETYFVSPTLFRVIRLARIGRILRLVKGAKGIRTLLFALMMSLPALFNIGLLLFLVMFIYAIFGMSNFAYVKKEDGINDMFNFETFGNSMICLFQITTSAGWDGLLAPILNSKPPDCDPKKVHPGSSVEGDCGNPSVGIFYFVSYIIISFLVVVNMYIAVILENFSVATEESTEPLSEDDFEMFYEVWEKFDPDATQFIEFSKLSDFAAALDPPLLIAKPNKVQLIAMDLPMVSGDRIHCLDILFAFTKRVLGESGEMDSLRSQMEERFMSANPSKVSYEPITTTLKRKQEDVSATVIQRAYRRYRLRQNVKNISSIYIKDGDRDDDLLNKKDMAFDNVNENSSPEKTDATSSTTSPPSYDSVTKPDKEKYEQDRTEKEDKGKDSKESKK

Biological target: Sodium channel protein type 9 subunit alpha (Homo sapiens, UniProt Q15858)
Assay: Inhibition of human NaV1.7 channel expressed in HEK293 cells by patch clamp electrophysiology assay
Type: cell-based

**Q.** How did the IC50 turn out when `O=S(=O)(Nc1ncns1)c1cc(F)c(OC[C@@H]2CNCC[C@H]2c2ccc(Cl)c(F)c2)cc1F` was run?
**A.** 0.9 nM
